Values quoted from earlier work, collected in patent publication EP0818443B1, “Mercaptoketones and mercaptoalcohols, a process for their preparation and their use as inhibitors of matrix metalloproteinases” (American Cyanamid Company, priority 1996, dated 1998).

Target: T1, human collagenase (Homo sapiens, UniProt P03956)
T1 sequence (P03956 100-469): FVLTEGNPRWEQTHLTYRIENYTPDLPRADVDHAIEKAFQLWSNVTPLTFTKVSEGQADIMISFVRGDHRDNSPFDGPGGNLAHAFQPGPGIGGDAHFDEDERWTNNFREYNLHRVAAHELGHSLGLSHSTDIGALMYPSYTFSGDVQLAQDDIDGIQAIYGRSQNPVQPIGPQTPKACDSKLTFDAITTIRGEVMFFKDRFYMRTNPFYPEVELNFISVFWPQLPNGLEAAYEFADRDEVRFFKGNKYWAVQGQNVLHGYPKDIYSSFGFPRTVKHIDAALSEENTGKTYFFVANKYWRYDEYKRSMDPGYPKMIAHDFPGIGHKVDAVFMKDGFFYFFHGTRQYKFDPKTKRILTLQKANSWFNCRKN
Conditions: SSR isomer; cited from earlier work

CNC(=O)[C@H](Cc1ccc(OC)cc1)NC(=O)[C@H](CC(C)C)[C@@H](S)CC(=O)OCc1ccccc1
IC50: 2 nM
